Assay results taken from patent US12691103B2 (Jinan University, priority 2022, dated 2026).

Test system: blood-testis barrier (BTB)
Conditions: busulfan model mice; riluzole intraperitoneal 3, 6 mg/kg for 7 days; biotin labeling

## Nc1nc2ccc(OC(F)(F)F)cc2s1 [riluzole, 2-amino-6-trifluomethoxy-benzothiazole]
  integrity of the blood-testis barrier of the mouse testis: more complete
